Earlier results on one substance are cited in patent publication US10314915B2, “Catechin bioavailability enhancer comprising cyclodextrin” (AMOREPACIFIC CORPORATION, priority 2012, dated 2019).

The conditions of the series: generally known.

Take catechin: the “catechin absorbed in intestines, level of the intake” value is recorded as “less than 2%”.
